The text below walks through data of ChEMBL document CHEMBL5214995, “Orally Bioavailable Quinoxaline Inhibitors of 15-Prostaglandin Dehydrogenase (15-PGDH) Promote Tissue Repair and Regeneration” (J Med Chem, 2022).

A short description of the data set: Aqueous solubility of the compound under shaking condition by LC-MS/MS analysis. It is filed as physicochemical. The following applies: buffer.

In general, solubility (thermodynamic) refers to the concentration in solution at equilibrium with solid. In turn, `Cl.Nc1ncc(-c2cnc3ccc(C(=O)N4CCCCC4)cc3n2)cc1Cl` yielded a solubility (thermodynamic) of 2.1 µg/mL.
